Consider 2 molecules from article PMC5943959, “Potent and Selective Carboxylic Acid Inhibitors of Tumor-Associated Carbonic Anhydrases IX and XII” (Molecules : A Journal of Synthetic Chemistry and Natural …, 2017).

By UniProt entry, the sequences of proteins in these tests, tags left out. Residues count along the entry.
UniProt O43570, 25-354: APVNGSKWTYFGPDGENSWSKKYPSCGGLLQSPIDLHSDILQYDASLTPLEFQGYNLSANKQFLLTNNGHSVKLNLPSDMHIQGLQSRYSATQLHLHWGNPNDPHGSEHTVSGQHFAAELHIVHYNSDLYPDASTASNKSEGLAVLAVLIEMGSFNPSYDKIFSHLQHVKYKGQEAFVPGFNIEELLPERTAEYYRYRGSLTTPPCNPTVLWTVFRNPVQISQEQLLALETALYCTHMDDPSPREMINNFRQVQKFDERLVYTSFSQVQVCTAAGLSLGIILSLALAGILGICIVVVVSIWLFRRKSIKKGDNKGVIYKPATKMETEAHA

Assay [1] concerns the target T1, hCA IX (Homo sapiens, UniProt Q16790).
T1 construct: made in house
The assay can be described thus: stopped-flow CO2 hydrase assay, hCA IX. It is filed as biochemical.

Assay [2] concerns the target T2, hCA XII (Homo sapiens, UniProt O43570).
T2 construct: made in house
Description: stopped-flow CO2 hydrase assay, hCA XII. It is filed as biochemical.

For the molecule `O=C(O)c1ccc(Sc2nnc(Sc3ccc(C(=O)O)cc3[N+](=O)[O-])s2)c([N+](=O)[O-])c1` [Compound 8], the “Selectivity Index hCA II/hCA IX” value in assay [1] stood at 30.4. Moreover, the “Selectivity Index hCA II/hCA XII” value in assay [2] turned out to be 0.9.

In the case of `CC(=O)Nc1cccc(Nc2c([N+](=O)[O-])cc(C(=O)O)cc2[N+](=O)[O-])c1` [Compound 12], in assay [2], the “Selectivity Index hCA II/hCA XII” value was greater than 544.1.
